The record followed here is patent US20230016182A1, “EO/PO-MODIFIED 9-PHENYLACRIDINE PHOTOSENSITIZERS AND APPLICATION THEREOF” (Changzhou Tronly New Electronic Materials Co., Ltd., priority 2019, published 2023).

A short description of the series: Photosensitizer solubility test in 2-butanone and PGMEA. Format: physicochemical. Conditions: Test temperature 25° C.; solvent PGMEA. Here is the method:
The solubility performances of the above products C1-C6 were tested, using 2-butanone and PGMEA as solvent represents. Among them, 9-phenylacridine (denoted as C7, produced by CHANGZHOU TRONLY NEW ELECTRONIC MATERIALS CO., LTD.) was used for comparison.

`COCCOCCOCCOc1ccc(-c2c3ccccc3nc3ccccc23)cc1` [Product C1]: the “Solubility in PGMEA” value was found to be 13.53 g.
